Assay: Equianalgesic potency conversion (Duragesic prescribing information)

## Ocycodone
  potency relative to oral morphine: twice as potent as oral morphine
